In patent publication US10159740B2, “Compositions with high content of sesamin class compounds” (SUNTORY HOLDINGS LIMITED, priority 2013, dated 2018):

Assay: Crystal deposition of sesamin in oil or fat compositions after storage at 5° C. for a week
Assay type: physicochemical
Conditions: conclusion from crystal deposition results

For γ-orizanol, the “solubility of the sesamin-class compound in the fish oil and/or wheat germ oil” value was “could increase the solubility”.
